Earlier results as cited in patent US20040142847A1, “Detergent tablets with polyurethane coating” (priority 2002, published 2004).
Like-named read-outs stand apart in the source and are kept apart here.

Conditions: 25° C.

Substance: Magnesium perchlorate hydrate
- solubility in water (listing of preferred solubilizers): 500 mg/mL
- solubility in water (listing of suitable solubilizers): 500 mg/mL
